# Apparent affinities of Ab-14 variants for a coronavirus HR2 peptide

Source: Li et al. 2023 (doi:10.1038/s41467-023-39022-2), MIT Lincoln Laboratory and A-Alpha Bio; data file from the FLAb repository.

Antigen: PDVDLGDISGINAS, a 14-residue peptide of the SARS-CoV-2 spike HR2 region.

Parent scFv Ab-14: VH joined to VL by the linker GGGGSGGGGSGGGGS. Changes lie in the heavy chain CDRs alone.
VH: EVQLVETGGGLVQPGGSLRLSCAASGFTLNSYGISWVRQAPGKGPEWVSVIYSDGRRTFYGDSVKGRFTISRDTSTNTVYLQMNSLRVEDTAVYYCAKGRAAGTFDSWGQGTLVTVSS
VL: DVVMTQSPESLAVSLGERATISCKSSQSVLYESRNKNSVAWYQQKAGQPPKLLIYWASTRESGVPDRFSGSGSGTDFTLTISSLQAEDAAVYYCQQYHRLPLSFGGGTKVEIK

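Phage display of a naive human antibody library on the peptide gave the parent. Designed CDR sequences, proposed from the first random library and measured here. Their group label is 14H_GPLM_HC (GPLM: also part of the Gaussian process libraries; HC: hill climbing; a sequence that several methods proposed may carry one label only). In AlphaSeq, yeast of one mating type display the scFv and yeast of the other type display the target. After mating in shaken culture at 30 °C for 16 h, diploids were selected and their barcode pairs sequenced. The ratio of observed to expected reads was calibrated, replicate by replicate, on BCL2-family standards whose Kd was known from biolayer interferometry. Mating was done six times.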

Variants are written as CDR1, CDR2 and CDR3 of the heavy chain (limits as in the source). Parent: GFTLNSYGIS, VIYSDGRRTFYGDSVK, GRAAGTFDS. Scale: log10 of Kd in nM, estimated from mating counts; low values are strong binders. The mean shown is taken over the replicates in which the pair was detected. "nd" means that the variant was in the library but no mating with the target was seen in that replicate; the authors take this as a sign of poor binding, and no number exists. A sequence measured in both rounds can read differently, since the two assays cover different ranges.

| CDR-H1 | CDR-H2 | CDR-H3 | replicates, log10 nM | mean, log10 nM | control signals |
|---|---|---|---|---|---|
| GFTLNDYGIS | VIYSDGRRTFYHDSVK | GRAAGTFIS | nd nd nd nd nd nd | nd | 0 of 18 |
| GFTLNEYGIS | VIYSDGRRTFYGDSVK | GRAAVTFDC | nd nd nd nd nd nd | nd | 0 of 18 |
| GFTLDSYGIS | VIYSDGRRTFYGDRVK | GRTAGTFDS | 1.58 1.11 0.97 1.81 0.87 1.21 | 1.26 | 0 of 18 |
| GFQLNSYGIS | VIYSDGRRTFYDDSVK | GQLAGTFDS | 0.07 1.19 1.18 0.90 0.37 0.79 | 0.75 | 0 of 18 |
| GFDLNSYGIS | VIYSDGRRTFYGDSVK | GRAAGMFWS | nd nd nd nd nd 2.10 | 2.10 | 0 of 18 |
| GFTLNQYGIS | VIYSDGRRTAYQDSVK | GRAAGTFDS | -0.38 0.32 0.18 -0.26 -0.27 0.19 | -0.04 | 0 of 18 |
| GFDLNSYGIS | VIYSDGRRTFYSDSVK | GAAGGTFDS | 2.45 1.58 1.80 nd 0.74 1.84 | 1.68 | 0 of 18 |
| GFELNSYGIS | VIYSDGRRTFYTDSVK | GREAGTFDS | -0.07 -0.50 -0.08 -0.32 -0.03 -0.51 | -0.25 | 0 of 18 |
| GFDLNSYGIS | VIYSDGRRTFYGDSVK | GRAAGHFVS | -0.06 1.01 0.28 -0.26 0.41 0.70 | 0.35 | 0 of 18 |
| GFTLNDYGIS | VIYSDGRRTFYGDSVK | GRMAGTFLS | 0.41 -0.05 0.80 -0.53 -0.47 -0.05 | 0.02 | 0 of 18 |
| GFTLNDYGIS | VIYSDGRRTQYIDSVK | GRAAGTFTS | nd nd nd nd nd nd | nd | 0 of 18 |
| GFTLNEYGIS | VIYSDGRRTFYGDSVK | GRAAGTFIQ | nd nd nd nd nd nd | nd | 0 of 18 |
| GFTINSYGIS | VIYSDGRRTFYSDSVK | GHAAGTFDS | 0.19 0.41 0.14 0.00 0.54 0.84 | 0.35 | 0 of 18 |
| GFTLNQYGIS | VIYSDGKRTFYIDSVK | GRAAGTFDS | nd 1.46 nd nd -0.35 nd | 0.55 | 0 of 18 |
| GFTLNEYGIS | VIYSDGRRTFYMDSVK | GRIAGTFDS | 0.70 0.93 0.22 0.45 1.27 0.30 | 0.64 | 0 of 18 |
| GFTLNDYGIS | VIYSDGRRTFYADSVK | GRAAGTFFS | -0.25 nd nd nd nd nd | -0.25 | 0 of 18 |
| GFTLNQYGIS | VIYSDGRRTFYSDSVK | GDAAGTFDS | 0.10 0.15 0.00 -0.02 -0.02 0.05 | 0.04 | 0 of 18 |
| GFTLNDYGIS | VIYSDGRRTFYSDSVK | GRAAGTFIS | nd nd nd nd nd nd | nd | 0 of 18 |
| GFTLNDYGIS | VIYSDGRRTFYTDSVK | GRFAGTFDS | 2.05 0.27 0.44 -0.06 1.42 0.34 | 0.74 | 0 of 18 |
| KFTLNSYGIS | VIYSDGRRTFYDDSVK | GQTAGTFDS | nd 1.52 nd nd nd 1.40 | 1.46 | 0 of 18 |
| GFDLNSYGIS | VIYSDGRRTFYGDAVK | GKAAGTFDS | 0.53 0.44 0.37 0.33 0.27 0.43 | 0.40 | 1 of 18 (3.13) |
| GFTLNEYGIS | VIYSDGRRTFYTDSVK | GRTAGTFDK | -0.17 -0.63 -0.46 -0.57 -0.28 -0.63 | -0.46 | 0 of 18 |
| GFSLNEYGIS | VIYSDGRRTFYADSVK | GRAAVTFDQ | nd nd nd nd nd nd | nd | 0 of 18 |
| KFTLNSYGIS | VIYSDGRRTFYSDSVK | GQLAGTFDS | 1.07 0.80 0.60 0.31 0.83 1.22 | 0.81 | 0 of 18 |
| GFTLNQYGIS | VIYSDGMRTFYSDSVK | GKAAGTFDS | 0.88 0.55 0.30 0.19 0.31 0.51 | 0.46 | 0 of 18 |
| GFTLNSYGIS | VIYSDGRRTFYDDSVK | GRLAGTFDS | 1.46 0.96 1.27 1.17 1.18 1.59 | 1.27 | 0 of 18 |
| GFTLNSYGIS | VIYSDGRRTFYSDSVK | GLAVGTFDS | nd nd nd nd nd nd | nd | 0 of 18 |
| GFTLNEYGIS | VIYSDGTRTFYTDSVK | GRFAGTFDS | nd nd nd 3.45 2.64 1.93 | 2.68 | 0 of 18 |
| GFSLNDYGIS | VIYSDGRRTFYGDSVK | GRAAGTFES | 0.78 0.59 0.71 0.57 0.56 0.16 | 0.56 | 0 of 18 |
| GFTLNDYGIS | VIYSDGKRTFYIDSVK | GRAAGTFDS | 1.57 1.71 0.10 1.11 0.39 2.13 | 1.17 | 0 of 18 |

A selection of 2 entries from above:

| CDR-H1 | CDR-H2 | CDR-H3 | replicates, log10 nM | mean, log10 nM | control signals |
|---|---|---|---|---|---|
| GFTLNEYGIS | VIYSDGRRTFYTDSVK | GRTAGTFDK | -0.17 -0.63 -0.46 -0.57 -0.28 -0.63 | -0.46 | 0 of 18 |
| KFTLNSYGIS | VIYSDGRRTFYDDSVK | GQTAGTFDS | nd 1.52 nd nd nd 1.40 | 1.46 | 0 of 18 |

Three control strains display no target. For all heavy chain designs, 1% of the pairings with them gave a signal, with a median of 2.08 and one signal in twenty below 0.84, so weak values seen in few replicates may be background. Also given: how often the same scFv was detected with the empty control strains, with their mean in brackets. In the paper, a design with two or fewer of six values counts as a poor binder.